System: breast cancer, pancreatic cancer, and lung cancer cell lines
Test: Cytotoxicity of ADCs with additional linkers and toxins (FIGS. 30-31)
Format: cell-based
Experimental: FIG. 30 is a table showing cytotoxicity of the indicated MUC1* ADCs against indicated cancer cells. IC50 values were determined from xCELLigence data. FIG. 30 discloses “GGFG” as SEQ ID NO: 160, “GGGG” as SEQ ID NO: 161, “GGVA” as SEQ ID NO: 162, “GGVG” as SEQ ID NO: 163.
FIG. 31 is a table showing cytotoxicity of the indicated MUC1* ADCs against indicated cancer cells. IC50 values were determined from PrestoBlue data.
An anti-MUC1* antibody was conjugated to several toxins via a number of different linkers (compounds VIII-XXII).

| Substance | cytotoxic activity against breast cancer, pancreatic cancer, and lung cancer cell lines |
| --- | --- |
| C2 MC-GGVA GAB-exatecan [XVI] | cytotoxic activity |
| C2 MC-VA GAB-exatecan [XV] | cytotoxic activity |

— US20260137799A1, “ANTI-MUC1* ANTIBODY DRUG COMPLEXES AND USES THEREOF” (Minerva Biotechnologies Corporation, priority 2023, published 2026)
